Membrane permeability of cyclic peptides

Source: CycPeptMPDB (Li et al. 2023), which took these values from Townsend et al. 2020, doi:10.26434/chemrxiv.13335941.v1.

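Lipid, pH, incubation time, direction and concentration are not recorded in the data file. Other peptides of the study may be missing here. Entries at the database's floor value (log10 P of -10) are not listed.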

PAMPA measures passive passage through an artificial lipid membrane.
P is given in units of 10^-6 cm/s (from log10 values with two decimals); larger means faster passage.

SMILES	PAMPA (10^-6 cm/s)
CCCN1CC(=O)N(C)[C@@H](CC(C)C)C(=O)N(C)[C@H](CC(C)C)C(=O)N2CCC[C@H]2C(=O)N[C@H](CC(C)C)C(=O)N[C@@H](Cc2ccccc2)C1=O	19
CC(C)C[C@@H]1NC(=O)C[C@H](Cc2ccccc2)NC(=O)[C@@H]2CCCN2C(=O)[C@H](Cc2ccccc2)NC(=O)[C@@H](CC(C)C)NC(=O)[C@@H]2CCCN2C(=O)[C@H](CC(C)C)N(C)C1=O	3.1
CC(C)C[C@H]1NC(=O)[C@@H](C)N(C)C(=O)[C@H](Cc2ccccc2)NC(=O)[C@@H](CC(C)C)NC(=O)[C@@H]2CCCN2C(=O)C[C@H](Cc2ccccc2)NC1=O	5.5
CC(C)C[C@@H]1NC(=O)[C@@H](CC(C)C)N(C)C(=O)C[C@H](Cc2ccccc2)NC(=O)[C@H](Cc2ccccc2)NC(=O)[C@@H](CC(C)C)N(C)C(=O)[C@H]2CCCN2C1=O	4.8
CC(C)C[C@@H]1C(=O)N[C@H](CC(C)C)C(=O)N2CCC[C@@H]2C(=O)N[C@H](CC(C)C)C(=O)N[C@@H](Cc2ccccc2)C(=O)N(C)[C@@H](C)C(=O)N1C	2
CCCN1CC(=O)N(C)[C@H](CC(C)C)C(=O)N[C@@H](CC(C)C)C(=O)N2CCC[C@H]2C(=O)N(C)[C@@H](CC(C)C)C(=O)N[C@@H](Cc2ccccc2)C1=O	18
CCCN1CC(=O)N(Cc2ccccc2)CC(=O)N(C)[C@@H](CC(C)C)C(=O)N2CCC[C@H]2C(=O)N[C@@H](CC(C)C)C(=O)N[C@@H](Cc2ccccc2)C(=O)N2CCC[C@H]2C1=O	2
CC(C)C[C@@H]1C(=O)N[C@H](CC(C)C)C(=O)N2CCC[C@@H]2C(=O)N(C)[C@H](CC(C)C)C(=O)N[C@@H](Cc2ccccc2)C(=O)N2CCC[C@H]2C(=O)N[C@@H](C)C(=O)N1C	2
CCCN1CC(=O)N[C@H](CC(C)C)C(=O)N[C@@H](CC(C)C)C(=O)N2CCC[C@@H]2C(=O)N(Cc2ccccc2)CC(=O)N[C@@H](Cc2ccccc2)C1=O	9.8
CC(C)C[C@@H]1NC(=O)[C@@H](C)N(C)C(=O)[C@H](Cc2ccccc2)NC(=O)[C@H](CC(C)C)N(C)C(=O)[C@H]2CCCN2C(=O)CN(Cc2ccccc2)C1=O	7.2
CC(C)C[C@@H]1NC(=O)[C@H](C)NC(=O)[C@H]2CCCN2C(=O)[C@H](Cc2ccccc2)NC(=O)CN(Cc2ccccc2)C(=O)[C@H]2CCCN2C(=O)[C@@H](CC(C)C)N(C)C1=O	0.66
CC(C)C[C@@H]1C(=O)N[C@@H](Cc2ccccc2)C(=O)N2CCC[C@@H]2C(=O)N(C)[C@H](C)C(=O)N(Cc2ccccc2)CC(=O)N[C@@H](Cc2ccccc2)CC(=O)N2CCC[C@H]2C(=O)N1C	2.3
CCCN1CC(=O)N(C)[C@H](CC(C)C)C(=O)N[C@H](CC(C)C)C(=O)N2CCC[C@H]2C(=O)N[C@H](CC(C)C)C(=O)N[C@@H](Cc2ccccc2)C1=O	13
CC(C)C[C@@H]1NC(=O)[C@@H](CC(C)C)N(C)C(=O)C[C@H](Cc2ccccc2)NC(=O)[C@H]2CCCN2C(=O)[C@H](Cc2ccccc2)NC(=O)[C@H](CC(C)C)N(C)C(=O)[C@@H]2CCCN2C1=O	3
CC(C)C[C@@H]1C(=O)N[C@@H](Cc2ccccc2)C(=O)N2CCC[C@H]2C(=O)N[C@@H](Cc2ccccc2)CC(=O)N[C@H](CC(C)C)C(=O)N[C@@H](Cc2ccccc2)CC(=O)N2CCC[C@@H]2C(=O)N1C	2.5
CCCN1CC(=O)N(C)[C@H](CC(C)C)C(=O)N[C@@H](Cc2ccccc2)CC(=O)N2CCC[C@H]2C(=O)N[C@H](CC(C)C)C(=O)N[C@@H](Cc2ccccc2)C(=O)N2CCC[C@H]2C1=O	4
CC(C)C[C@@H]1NC(=O)[C@@H](C)NC(=O)[C@@H]2CCCN2C(=O)[C@H](Cc2ccccc2)NC(=O)[C@@H](CC(C)C)NC(=O)[C@@H]2CCCN2C(=O)CN(Cc2ccccc2)C1=O	0.76
CC(C)C[C@H]1NC(=O)C[C@H](Cc2ccccc2)NC(=O)[C@@H]2CCCN2C(=O)[C@H](Cc2ccccc2)NC(=O)[C@H](CC(C)C)N(C)C(=O)[C@H]2CCCN2C(=O)C[C@H](Cc2ccccc2)NC1=O	1.9
CC(C)C[C@@H]1NC(=O)[C@H](C)N(C)C(=O)[C@H](Cc2ccccc2)NC(=O)[C@@H](CC(C)C)NC(=O)[C@H]2CCCN2C(=O)[C@H](CC(C)C)N(C)C1=O	0.65
CC(C)C[C@@H]1C(=O)N(C)[C@@H](CC(C)C)C(=O)N2CCC[C@@H]2C(=O)N(Cc2ccccc2)CC(=O)N[C@@H](Cc2ccccc2)C(=O)N2CCC[C@H]2C(=O)N(C)[C@@H](C)C(=O)N1C	2.6
CC(C)C[C@@H]1C(=O)N[C@@H](Cc2ccccc2)C(=O)N2CCC[C@@H]2C(=O)N[C@H](C)C(=O)N[C@H](CC(C)C)C(=O)N(Cc2ccccc2)CC(=O)N2CCC[C@H]2C(=O)N1C	0.62

Again, the 2 entries with the lowest PAMPA:

SMILES	PAMPA (10^-6 cm/s)
CC(C)C[C@@H]1C(=O)N[C@@H](Cc2ccccc2)C(=O)N2CCC[C@@H]2C(=O)N[C@H](C)C(=O)N[C@H](CC(C)C)C(=O)N(Cc2ccccc2)CC(=O)N2CCC[C@H]2C(=O)N1C	0.62
CC(C)C[C@@H]1NC(=O)[C@H](C)N(C)C(=O)[C@H](Cc2ccccc2)NC(=O)[C@@H](CC(C)C)NC(=O)[C@H]2CCCN2C(=O)[C@H](CC(C)C)N(C)C1=O	0.65